# Values of other authors, collected in US6630120B1, “Agents to increase the uptake of pharmaceuticals and diagnostic substances into solid tumors” (priority 1999, dated 2003).
# The chains behind the UniProt entries cited, without tags or fusion partners. Residues count along the entry.
# UniProt P12821, 30-1306, species assumed: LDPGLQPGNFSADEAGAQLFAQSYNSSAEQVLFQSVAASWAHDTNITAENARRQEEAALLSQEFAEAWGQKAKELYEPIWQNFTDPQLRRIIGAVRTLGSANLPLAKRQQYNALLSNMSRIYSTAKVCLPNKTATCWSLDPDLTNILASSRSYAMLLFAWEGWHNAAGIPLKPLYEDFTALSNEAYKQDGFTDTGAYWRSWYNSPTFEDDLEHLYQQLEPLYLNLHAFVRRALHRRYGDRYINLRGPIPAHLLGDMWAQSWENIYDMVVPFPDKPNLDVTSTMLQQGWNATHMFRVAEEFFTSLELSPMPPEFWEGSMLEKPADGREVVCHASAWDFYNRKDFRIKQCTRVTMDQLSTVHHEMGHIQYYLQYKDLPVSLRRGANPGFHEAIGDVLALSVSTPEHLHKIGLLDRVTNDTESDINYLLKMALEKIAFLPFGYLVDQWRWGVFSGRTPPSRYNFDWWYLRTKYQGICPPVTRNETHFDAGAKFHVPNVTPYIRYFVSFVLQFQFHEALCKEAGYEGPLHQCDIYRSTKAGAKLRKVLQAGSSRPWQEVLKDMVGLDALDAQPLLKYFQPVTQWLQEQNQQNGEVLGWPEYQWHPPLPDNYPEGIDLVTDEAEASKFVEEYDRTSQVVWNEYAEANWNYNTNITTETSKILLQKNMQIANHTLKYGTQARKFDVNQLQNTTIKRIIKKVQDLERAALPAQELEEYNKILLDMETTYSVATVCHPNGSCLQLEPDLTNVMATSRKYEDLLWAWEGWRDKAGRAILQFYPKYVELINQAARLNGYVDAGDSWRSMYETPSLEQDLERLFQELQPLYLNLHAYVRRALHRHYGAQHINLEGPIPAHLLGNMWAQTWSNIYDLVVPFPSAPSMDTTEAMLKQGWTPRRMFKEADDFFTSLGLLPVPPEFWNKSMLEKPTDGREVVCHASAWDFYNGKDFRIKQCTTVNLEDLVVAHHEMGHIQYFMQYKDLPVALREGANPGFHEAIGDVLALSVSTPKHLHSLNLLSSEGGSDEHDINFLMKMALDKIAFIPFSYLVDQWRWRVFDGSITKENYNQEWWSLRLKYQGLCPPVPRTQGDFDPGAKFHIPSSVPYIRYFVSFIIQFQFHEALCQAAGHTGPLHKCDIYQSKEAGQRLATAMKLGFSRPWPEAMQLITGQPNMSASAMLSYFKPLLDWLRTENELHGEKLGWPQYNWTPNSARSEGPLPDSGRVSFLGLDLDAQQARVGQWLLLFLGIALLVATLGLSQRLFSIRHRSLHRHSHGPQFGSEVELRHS
# Biological target: angiotensin converting enzyme (ACE) (Homo sapiens, UniProt P12821)
# Conditions: general statement, no method given; cited from earlier work
structure (smiles),measurement,value
"NC(N)=NCCC[C@H](NC(=O)[C@H](Cc1ccccc1)NC(=O)[C@@H]1CCCN1C(=O)[C@H](CO)NC(=O)[C@H](Cc1ccccc1)NC(=O)CNC(=O)[C@@H]1CCCN1C(=O)[C@@H]1CCCN1C(=O)[C@@H](N)CCCN=C(N)N)C(=O)O [bradykinin, Arginine-Proline-Proline-Glycine-Phenylalanine-Serine-Proline-Phenylalanine-Arginine, reference compound]",degradation by angiotensin converting enzyme (ACE),significantly degraded
